Data on one substance can be found in patent US20030032774A1, “Novel opioid peptides for the treatment of pain” (priority 1994, published 2003).

Amino acid sequences for entries named in this document (tags omitted).
UniProt P33535, whole entry: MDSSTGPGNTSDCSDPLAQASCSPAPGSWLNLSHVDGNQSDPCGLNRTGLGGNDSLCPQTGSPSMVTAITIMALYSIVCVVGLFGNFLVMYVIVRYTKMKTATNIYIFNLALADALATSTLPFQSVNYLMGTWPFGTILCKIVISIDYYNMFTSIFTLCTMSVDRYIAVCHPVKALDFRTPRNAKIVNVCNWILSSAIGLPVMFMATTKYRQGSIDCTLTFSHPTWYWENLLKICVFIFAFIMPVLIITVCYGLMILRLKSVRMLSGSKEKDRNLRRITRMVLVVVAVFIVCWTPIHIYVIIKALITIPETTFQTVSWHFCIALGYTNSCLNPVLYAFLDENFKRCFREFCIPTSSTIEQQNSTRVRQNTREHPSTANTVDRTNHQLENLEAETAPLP
UniProt P97266, whole entry, looked up: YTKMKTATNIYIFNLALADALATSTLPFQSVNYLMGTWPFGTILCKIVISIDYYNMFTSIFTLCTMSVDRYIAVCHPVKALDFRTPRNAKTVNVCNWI

As a reminder, the Ki is a measure of affinity in units of concentration, obtained from inhibition or displacement. By IC50 is commonly meant the concentration that gives 50% inhibition. Low readings indicate greater potency in that assay, high ones weaker potency in that assay.

One data set deals with T1, μ receptor (Rattus norvegicus, UniProt P33535).
T1 construct: the brains (minus the cerebellum) were removed, placed in ice-cold saline solution, and then homogenized; from tissue; host or cells: rat brain (minus cerebellum) membranes
As to the kind of experiment: Radioligand binding assay, μ opioid receptor ((3H)-DAMGO, brain membranes). Conditions: Table 1. On the procedure: PBQ (phenyl-ρ-benzoquinone) induced writhing in mice is an assessment of both central and peripheral analgesia (see Sigmund, et al., Proc. Soc. Exp. Biol. Med. 95:729 (1957)). Central analgesia is determined by the inhibition of a hot-plate response in mice (see, Wolfe, et al., J. Pharmacol. Exp. Ther. 80:300 (1944)). Assays measuring opioid receptor binding affinities for μ and δ receptors as well as the GPI assay were determined through experimental protocol set out in Schiller et al. (Biophys. Res. Commun. 85:1322 (1975)). The references by Sigmund, et al., Wolfe, et al., and Schiller, et al. are each hereby incorporated by reference.
Male Sprague-Dawley rats weighing between 350-450 g were sacrificed by inhalation of CO2. […] The pellets were re-suspended in approximately 6 ml/brain of ice-cold Tris buffer 50 mM pH 7.4 and stored at −78° C. until ready for use. Protein quantification of the brain homogenate was conducted according to protein assay kit purchased (Bio-Rad).
(^3H)-DAMGO and (^3H)-DAGLE were used as radioligands for the μ and δ receptors, respectively. […] Nonspecific binding was determined using a 500 fold excess of unlabeled ligand in the presence of tracer and membranes. […] The filters were dried and radioactivity was counted in a 24 well microplate in the presence of 500 μl scintillant per well. Radioactivity was measured using a Wallace 1450 Microbeta counter. […]

Another data set deals with μ receptors (Cavia porcellus, UniProt P97266). As to the kind of experiment: Guinea Pig Ileum (GPI) assay, longitudinal muscle preparation. Conditions: Table 1. On the procedure:
The activity of the peptide compounds on μ receptors was determined using the Guinea Pig Ileum (GPI) assay (longitudinal muscle preparation) according to the procedures described in Schiller et al., Biophys. Res. Commun. 85:1322 (1975).

In the next data set the test system is mice. As to the kind of experiment: Lethal effects / safety in mice. Conditions: doses up to 20 mg/kg i.v.

In the case of H-Tyr-D-Ser-Phe-Phe-NH2 [BCH2463], on μ receptor, the affinity corresponds to a Ki of 2.2 nM. At μ receptors, this substance showed a half-inhibitory concentration (IC50) of 13 nM. For the same substance, the “lethal effects upon mice” value in the data set on mice is “did not exhibit any lethal effects”.
